Data set [1] has as its target T1, UGT2B7^268His (Homo sapiens, UniProt P16662, Y268H).
T1 sequence (P16662 24-529 Y268H): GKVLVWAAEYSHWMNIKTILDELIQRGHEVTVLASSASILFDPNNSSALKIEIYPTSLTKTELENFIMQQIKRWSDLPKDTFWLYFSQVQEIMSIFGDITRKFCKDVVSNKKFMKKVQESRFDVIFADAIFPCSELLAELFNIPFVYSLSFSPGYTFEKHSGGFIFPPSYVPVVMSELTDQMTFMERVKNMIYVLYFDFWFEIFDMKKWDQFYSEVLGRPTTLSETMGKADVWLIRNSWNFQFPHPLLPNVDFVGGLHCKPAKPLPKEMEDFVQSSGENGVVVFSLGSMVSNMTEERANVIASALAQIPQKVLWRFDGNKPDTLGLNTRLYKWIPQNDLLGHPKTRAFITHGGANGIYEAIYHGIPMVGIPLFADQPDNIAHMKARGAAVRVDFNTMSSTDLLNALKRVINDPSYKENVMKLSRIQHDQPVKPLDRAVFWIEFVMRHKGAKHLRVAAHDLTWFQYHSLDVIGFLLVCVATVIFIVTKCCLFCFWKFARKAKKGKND
Conditions: CLint ratio relative to UGT2B7^268His microsomes.

For data set [2] the following is noted: cited from earlier work.
The conditions of data set [3]: human, in vivo; cited from earlier work.
For data set [4], the target named is T1, UGT2B7^268His. As to the kind of experiment: Inhibition of hydromorphone glucuronidation (HM3G formation) by cannabinoids in rUGT2B7^268His microsomes. Type of data set: biochemical. Details: expressed in transfected cells; microsomal membrane fraction.
A further data set addresses T2, UGT2B7^268Tyr (Homo sapiens, UniProt P16662).
T2 sequence (P16662 24-529): T1 sequence (P16662 24-529 Y268H) with H245Y
As to the kind of experiment: biochemical.

This is an account of results in publication PMC12597549 (Drug Metabolism and Disposition, 2025).

Where a chain is given by its changes, count along the chain named.

For `CN1CC[C@]23c4c5ccc(O)c4O[C@H]2C(=O)CC[C@H]3[C@H]1C5` [hydromorphone], on UGT2B7^268His [1], the “Relative Activity” value came out at 1.0. In addition, the “potency relative to morphine (times more potent)” value in data set [2] is on record as 5–10 times. Also, the “fe, fraction excreted unchanged in urine” value in data set [3] is recorded as “g CLR was calculated based on fe, fraction excreted unchanged in urine (0.07; Dilaudid package insert)”.
The term IC50 denotes the concentration needed to halve the response being measured. Read a high IC50 as lower potency. In the case of `C=C(C)[C@@H]1CCC(C)=C[C@H]1c1c(O)cc(CCCCC)cc1O` [CBD, cannabidiol], the IC50 amounted to 0.074 ± 0.01 µM against UGT2B7^268His [4] and 0.15 ± 0.02 µM on UGT2B7^268Tyr.
